Assay: log P value (octanol/water partition coefficient)

## bisphenol A-ethylene oxide (4 mole) adduct di(meth)acrylate
  log P: 5.15
